The data set in a line: Stability in ammonium carbonate buffer by high resolution ESI-MS. The settings on record: ammonium carbonate buffer pH 7.4, 37° C., 1, 3 and 24 hours.

The source of these data is US20230106519A1, “GOLD(III)-BIGUANIDE PRODRUGS, METHODS OF PREPARATION AND USES THEREOF” (National University of Singapore, priority 2020, published 2023).

Regarding “[Au^III(2-phenylpyridine)(metformin)]PF6 [Compound 1met]”, the “stability, detection of molecular ion [M]+” value is given as “stable for 24 hours”.
